Assay results published in patent US20260382736A1, “TAXOL CONJUGATE COMPOUNDS, COMPOSITIONS AND METHODS FOR THEIR USE” (published 2026).
Where “and” joins values, the source holds several entries; their conditions need not be identical. Identical values can stand only once.

Legend:
[1] = Single-dose I.V. and I.P. PK in male SD rats; details: for systemic exposure across species (in words): I.V. administration, rats vs mice or dogs; for Cmax and AUC, I.V. versus IP (in words) / T1/2, I.V. versus I.P. (in words): compound of Formula (II) 5.9 mg/kg I.V. or I.P.
[2] = Single-dose I.P. PK in CD-1 mice; details: for system exposure versus dose (in words): compound of Formula (II) I.P. from 5.9 to 23.8 mg/kg
[3] = system: NCI-H460-luc2 human intracranial cells; experiment: Survival in intracranial NCI-H460-luc2 model (brain cancer efficacy); details: for Increase Life Span (%): vs vehicle
[4] = Plasma stability in different species, overall statement
[5] = Drug distribution in tissues after third i.p. or i.v. dose of compound of Formula (II); details: for Concentration in brain / Concentration in heart / Concentration in kidney / Concentration in liver / Concentration in lung / Concentration in plasma: 2 h after third dose, QW × 3
[6] = I.V. PK in Balb/c mice; details: compound of Formula (II) 2.7 mg/kg IV
[7] = Single-dose I.V. and I.P. PK in Beagle dogs
[8] = compound of Formula (II) dosed 5.9 mg/kg I.V., mean
[9] = compound of Formula (II) dosed 5.9 mg/kg I.P., mean
[10] = compound of Formula (II) dosed 23.8 mg/kg I.P., mean
[11] = paclitaxel dosed 10 mg/kg I.P., mean
[12] = compound of Formula (II) dosed 2.7 mg/kg i.v.
[13] = compound of Formula (II) dosed 5.9 mg/kg i.p.
[14] = Table 2-7, compound of Formula (II) 5.9 mg/kg IP, rat
[15] = compound of Formula (II) 6 mg/kg IV, rat
[16] = Table 2-7, compound of Formula (II) 5.9 mg/kg IP, mice
[17] = compound of Formula (II) 6 mg/kg IV, dog
[18] = compound of Formula (II) dosed 1 mg/kg I.V.
[19] = compound of Formula (II) dosed 3 mg/kg I.P.

For CC(=O)O[C@H]1C(=O)[C@@]2(C)[C@H]([C@H](OC(=O)c3ccccc3)[C@]3(O)C[C@H](OC(=O)[C@H](O)[C@@H](NC(=O)c4ccccc4)c4ccccc4)C(C)=C1C3(C)C)[C@]1(OC(C)=O)CO[C@@H]1C[C@@H]2O, the “systemic exposure across species (in words)” value [1] was “observed in rats compared to mice or dogs”, the “Cmax and AUC, I.V. versus IP (in words)” value [1] was “so did its metabolite Paclitaxel” and the “T1/2, I.V. versus I.P. (in words)” value [1] was “so did its metabolite Paclitaxel”. For the same molecule, the C0 [1, 8] was 0.244 µM, the “systemic exposure and release of paclitaxel across species (in words)” value ([2]; I.P. administration, mice vs rats or dogs) was “higher in mice than rats or dogs” and the “system exposure versus dose (in words)” value [2] was “increased less than dose proportionally as dose levels increased”. It also gave an AUMC0-inf [2, 9] of 39776.15 h*h*nmol/L, an AUMC0-t [2, 9] of 19837.331 h*h*nmol/L and a Cl_F_obs [2, 9] of 3.138 L/h/kg. For the same molecule, the Kel [2, 9] was 0.068 h⁻¹, the MRTlast [2, 9] was 696.12 min and the Vz_Fo_bs [2, 9] was 62.063 L/kg. For the same molecule, the AUMC0-inf [2, 10] was 109886.96 h*h*nmol/L, the AUMC0-t [2, 10] was 72372.302 h*h*nmol/L and the Cl_F_obs [2, 10] was 3.899 L/h/kg. The Kel [2, 10] was 0.037 h⁻¹, the MRTlast [2, 10] was 1070.2 min and the Vz_Fo_bs [2, 10] was 125.043 L/kg. For the same molecule, the AUMC0-inf [2, 11] was 12720.824 h*h*nmol/L, the AUMC0-t [2, 11] was 5845.93 h*h*nmol/L and the Cl_F_obs [2, 11] was 4.916 L/h/kg. For the same molecule, the Kel [2, 11] was 0.312 h⁻¹, the MRTlast [2, 11] was 183.8 min and the Vz_Fo_bs [2, 11] was 16.901 L/kg. The “Median Survival Time (MST)” value ([3]; 10 mg/kg, ± SEM) was 10 days and 10 ± 1 days.

With CC(=O)N[C@@H](CSSCCCC(=O)O[C@@H](C(=O)O[C@H]1C[C@@]2(O)[C@@H](OC(=O)c3ccccc3)[C@@H]3[C@]4(OC(C)=O)CO[C@@H]4C[C@H](O)[C@@]3(C)C(=O)[C@H](OC(C)=O)C(=C1C)C2(C)C)[C@@H](NC(=O)c1ccccc1)c1ccccc1)C(=O)N[C@H](CCCNC(=N)N)C(=O)N[C@H](CCCNC(=N)N)C(=O)N[C@H](CCCNC(=N)N)C(=O)N[C@H](CCCNC(=N)N)C(=O)N[C@H](CCCNC(=N)N)C(=O)N[C@H](CCCNC(=N)N)C(=O)N[C@H](CCCNC(=N)N)C(=O)N[C@H](CCCNC(=N)N)C(N)=O the “half-life in plasma, comparison with Compound 5 (in words)” value [4] was “longer half-life in plasma in different species”, the “brain to plasma ratio (B/P ratio)” value ([5]; 2 h after third dose of compound of Formula (II)) was “about 8” and the Concentration in brain [5, 12] was “BLQ”. It also gave a Concentration in heart [5, 12] of 163 ng/g, a Concentration in kidney [5, 12] of 1704 ng/g and a Concentration in liver [5, 12] of 13260 ng/g. For the same molecule, the Concentration in lung [5, 12] was 224 ng/g, the Concentration in plasma [5, 12] was “BLQ” and the Concentration in brain [5, 13] was 85.2 ng/g. For the same molecule, the Concentration in heart [5, 13] was “BLQ”, the Concentration in kidney [5, 13] was 846 ng/g and the Concentration in liver [5, 13] was 1992 ng/g. The Concentration in lung [5, 13] was 317 ng/g, the Concentration in plasma [5, 13] was 10.7 ng/g and the “tissue distribution (in words)” value ([5]; 2 hr after third I.P. or I.V. administration of compound of Formula (II)) was “the highest tissue exposure was observed in liver, and the exposure in liver via I.V. administration at lower dose was much higher than I.P. administration”. The “systemic exposure across species (in words)” value [1] was “observed in rats compared to mice or dogs”, the AUC0-t [1, 14] was 276 nM·h and the “AUC0-∞” value [1, 14] was 294 nM·h. The Tmax [1, 14] was 23.3 min, the “Cmax and AUC, I.V. versus IP (in words)” value [1] was “by I.V. administration was much higher than IP administration” and the “T1/2, I.V. versus I.P. (in words)” value [1] was “by I.V. administration was much longer than I.P. administration”. For the same molecule, the AUC0-t [1, 15] was 3293 nM·h, the “AUC0-∞” value [1, 15] was 3356 nM·h and the Cmax [1, 15] was 10.737 µM. It also gave a Tmax [1, 15] of 30 min, a t1/2 [1, 15] of 24.9 min and an F ([1]; compound of Formula (II) dosed 5.9 mg/kg I.P.) of 9.1%. The AUC0-inf [1, 9] was 294 nM·h, the AUC0-t [1, 9] was 276 nM·h and the “AUC Extr” value [1, 9] was 6.3%. For the same molecule, the Cmax [1, 9] was 0.3985 µM, the MRT [1, 9] was 151 min and the T1/2 [1, 9] was 124 min. The Tmax [1, 9] was 23.3 min, the AUC0-inf [1, 8] was 3205 nM·h and the AUC0-t [1, 8] was 3139 nM·h. The “AUC Extr” value [1, 8] was 2%, the C0 [1, 8] was 3.485126 µM and the CL [1, 8] was 2.998 L/h/kg. It also gave an MRT [1, 8] of 107 min, a VSS [1, 8] of 7.37 L/kg and a VZ [1, 8] of 28.13 L/kg. For the same molecule, the AUC0-t [2, 16] was 8.65 nM·h, the “AUC0-∞” value [2, 16] was 12.89 nM·h and the Cmax [2, 16] was 0.01187 µM. For the same molecule, the Tmax [2, 16] was 15 min, the t1/2 [2, 16] was 44.5 min and the “system exposure versus dose (in words)” value [2] was “increased more than dose proportionally as dose levels increased”. The AUC0-inf [2, 9] was 12.888 nM·h, the AUC0-t [2, 9] was 8.651 nM·h and the AUMC0-inf [2, 9] was 18.041 h*h*nmol/L. The AUMC0-t [2, 9] was 6.145 h*h*nmol/L, the Cl_F_obs [2, 9] was 324.56 L/h/kg and the Cmax [2, 9] was 0.011872 µM. It also gave a Kel [2, 9] of 1.095 h⁻¹, an MRTlast [2, 9] of 41.7 min and a T1/2 [2, 9] of 43.3 min. It also gave a Vz_Fo_bs [2, 9] of 317.1 L/kg, an AUC0-inf [2, 10] of 54.595 nM·h and an AUC0-t [2, 10] of 50.585 nM·h. The AUMC0-inf [2, 10] was 37.382 h*h*nmol/L, the AUMC0-t [2, 10] was 26.304 h*h*nmol/L and the Cl_F_obs [2, 10] was 333.919 L/h/kg. The Cmax [2, 10] was 0.088576 µM, the Kel [2, 10] was 1.323 h⁻¹ and the MRTlast [2, 10] was 31.9 min. The T1/2 [2, 10] was 31.8 min, the Vz_Fo_bs [2, 10] was 261.409 L/kg and the AUC0-t [6] was 639 nM·h. The “AUC0-∞” value [6] was 678 nM·h, the Cmax [6] was 2.32 µM and the Tmax [6] was 3 min. For the same molecule, the t1/2 [6] was 17.3 min, the “Median Survival Time (MST)” value ([3]; 9.6 mg/kg) was 14 days and the “Increase Life Span (%)” value ([3]; 9.6 mg/kg) was 0.00%. For the same molecule, the “Median Survival Time (MST)” value ([3]; 19.2 mg/kg, ± SEM) was 10 ± 2 days, the “survivors at the end point” value ([3]; 38.4 mg/kg group) was “one mouse in Compound of Formula (II) 38.4 mg/kg group was still alive” and the “Increase Life Span (%)” value ([3]; 38.4 mg/kg) was 0.00%. The “Median Survival Time (MST)” value ([3]; 38.4 mg/kg, ± SEM) was 14 days and 14 ± 1 days, the AUC0-t [7, 17] was 6260 nM·h and the “AUC0-∞” value [7, 17] was 6340 nM·h. It also gave a Cmax [7, 17] of 4.34 µM, a Tmax [7, 17] of 33 min and a t1/2 [7, 17] of 80.4 min. The AUC0-t [7, 18] was 680 nM·h, the “AUC0-∞” value [7, 18] was 681 nM·h and the Cmax [7, 18] was 0.819 µM. It also gave a Tmax [7, 18] of 3 min, a t1/2 [7, 18] of 27.6 min and an AUC0-t [7, 19] of 622 nM·h. For the same molecule, the “AUC0-∞” value [7, 19] was 625 nM·h, the Cmax [7, 19] was 0.348 µM and the “F % (bioavailability)” value [7, 19] was 30.5%. The Tmax [7, 19] was 11.6 min, the t1/2 [7, 19] was 47.4 min and the “systemic exposure I.V. versus I.P. after dose normalization (in words)” value ([7]; compound of Formula (II) dosed I.V. and I.P.) was “by I.V. administration was much higher than I.P. administration”.
